Among the data in ChEMBL document CHEMBL5230114, “Current development of CFTR potentiators in the last decade” (Eur J Med Chem, 2020) are EC50 values, retold here.

Sequences of proteins named here, by UniProt entry; tags and fusion partners are left off. A line that says so, or that is headed by a name, gives the form on record, which may keep a tag or linker.
UniProt P13569, as listed by the source: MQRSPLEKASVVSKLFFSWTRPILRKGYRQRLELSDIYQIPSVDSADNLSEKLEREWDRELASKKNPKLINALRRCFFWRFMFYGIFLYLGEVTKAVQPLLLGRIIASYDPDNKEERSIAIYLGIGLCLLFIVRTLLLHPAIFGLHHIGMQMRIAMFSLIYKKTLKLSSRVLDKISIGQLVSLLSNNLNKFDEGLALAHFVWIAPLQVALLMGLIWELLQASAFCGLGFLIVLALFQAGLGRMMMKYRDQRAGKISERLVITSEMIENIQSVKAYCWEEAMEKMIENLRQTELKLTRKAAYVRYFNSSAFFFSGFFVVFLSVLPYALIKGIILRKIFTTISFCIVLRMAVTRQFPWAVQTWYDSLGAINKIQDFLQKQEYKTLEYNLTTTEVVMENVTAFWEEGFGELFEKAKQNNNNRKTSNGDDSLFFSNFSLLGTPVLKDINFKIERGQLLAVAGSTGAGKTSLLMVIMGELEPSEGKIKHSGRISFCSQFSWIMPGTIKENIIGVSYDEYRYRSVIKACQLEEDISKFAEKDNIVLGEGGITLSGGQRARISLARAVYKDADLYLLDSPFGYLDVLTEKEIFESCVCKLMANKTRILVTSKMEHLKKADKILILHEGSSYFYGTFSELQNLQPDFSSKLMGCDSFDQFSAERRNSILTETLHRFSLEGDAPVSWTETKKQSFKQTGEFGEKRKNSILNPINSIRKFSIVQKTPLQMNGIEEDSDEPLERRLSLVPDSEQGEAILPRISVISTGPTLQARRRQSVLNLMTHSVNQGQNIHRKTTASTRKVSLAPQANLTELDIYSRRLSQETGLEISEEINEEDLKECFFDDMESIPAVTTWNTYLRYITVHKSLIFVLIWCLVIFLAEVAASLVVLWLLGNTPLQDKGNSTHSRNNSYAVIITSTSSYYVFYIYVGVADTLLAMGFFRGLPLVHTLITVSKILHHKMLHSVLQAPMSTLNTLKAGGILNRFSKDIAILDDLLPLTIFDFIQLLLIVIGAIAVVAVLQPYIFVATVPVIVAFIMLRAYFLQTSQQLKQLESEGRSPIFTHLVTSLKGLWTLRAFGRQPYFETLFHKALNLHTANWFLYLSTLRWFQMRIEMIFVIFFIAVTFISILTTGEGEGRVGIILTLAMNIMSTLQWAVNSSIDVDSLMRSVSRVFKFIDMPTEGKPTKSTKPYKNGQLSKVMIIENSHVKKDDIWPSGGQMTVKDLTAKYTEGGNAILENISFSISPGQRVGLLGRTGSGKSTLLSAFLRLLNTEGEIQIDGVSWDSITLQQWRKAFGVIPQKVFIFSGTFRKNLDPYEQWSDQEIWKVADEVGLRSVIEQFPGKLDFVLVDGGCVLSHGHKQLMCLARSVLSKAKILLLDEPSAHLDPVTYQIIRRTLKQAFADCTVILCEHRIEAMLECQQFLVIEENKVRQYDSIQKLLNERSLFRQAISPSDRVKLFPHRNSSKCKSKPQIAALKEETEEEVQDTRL

SMILES strings stand for the structures.

In the test the target is Cystic fibrosis transmembrane conductance regulator (Homo sapiens, UniProt P13569, F508DEL). Briefly: Potentiation of CFTR F508del mutant activity (unknown origin).

For orientation: EC50 means the concentration at which the effect is half-maximal. For the compound `O=c1c(-c2ccc(O)cc2)coc2cc(O)cc(O)c12` [GENISTEIN], the EC50 worked out at 7 µM.
